Results published in PubChem BioAssay AID540277 (National Center for Advancing Translational Sciences (NCATS), 2011).
Some of the results follow. Results filed as inconclusive are left out. The source made the active and inactive calls. No stated cut-off is given here; in the data, active means potentiation above about 80%; inconclusive means between about 30% and that limit; inactive means weaker than that.

The chains behind the UniProt entries cited, without tags or fusion partners.
UniProt Q8NER1, whole entry: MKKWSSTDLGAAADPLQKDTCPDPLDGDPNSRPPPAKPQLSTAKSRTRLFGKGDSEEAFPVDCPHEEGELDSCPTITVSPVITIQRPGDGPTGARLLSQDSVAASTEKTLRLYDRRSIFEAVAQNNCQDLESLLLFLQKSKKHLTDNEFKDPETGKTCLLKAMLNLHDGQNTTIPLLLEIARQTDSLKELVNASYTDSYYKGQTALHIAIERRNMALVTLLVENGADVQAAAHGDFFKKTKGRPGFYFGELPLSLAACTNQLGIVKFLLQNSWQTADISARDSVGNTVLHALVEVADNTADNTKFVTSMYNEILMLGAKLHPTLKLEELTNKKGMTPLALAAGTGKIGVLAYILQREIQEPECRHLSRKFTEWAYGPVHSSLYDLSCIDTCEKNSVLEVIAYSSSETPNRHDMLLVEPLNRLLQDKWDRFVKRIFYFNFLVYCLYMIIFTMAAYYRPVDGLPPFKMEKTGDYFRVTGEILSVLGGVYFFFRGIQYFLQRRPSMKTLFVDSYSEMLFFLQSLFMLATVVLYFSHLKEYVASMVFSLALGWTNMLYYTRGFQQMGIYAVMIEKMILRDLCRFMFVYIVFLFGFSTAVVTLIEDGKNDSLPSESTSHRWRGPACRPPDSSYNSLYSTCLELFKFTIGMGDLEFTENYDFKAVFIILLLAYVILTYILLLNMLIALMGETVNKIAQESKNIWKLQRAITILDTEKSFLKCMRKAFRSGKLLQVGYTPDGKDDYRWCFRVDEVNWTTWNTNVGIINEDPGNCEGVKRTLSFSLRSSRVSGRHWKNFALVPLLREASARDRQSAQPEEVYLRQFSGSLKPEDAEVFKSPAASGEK

Molecular target: Transient receptor potential cation channel subfamily V member 1 (Homo sapiens) (UniProt Q8NER1)
Assay: HTS Assay for Compounds that Act as Potentiators of the Vanilloid Receptor 1; further: 0% is about no effect
Details: TRPV1-expressing cells, Fluo-8 calcium influx, capsaicin EC20 potentiation; at 8.33 µM; stronger effect = higher value
Source text: The transient receptor potential ion channel, family V, number 1, (TRPV1) is one of the most important molecular transducers of painful stimuli and a potential target for analgesic drug development. Although recent clinical trials with orthosteric antagonists have not produced a successful drug because of a hyperthermia side effect and their tendency to block thermal noxious pain, this ion channel is undeniably well placed in the pain pathway, and the idea of blocking pain signals before they enter the CNS is an excellent concept and of proven efficacy when TRPV1 agonists are used. We propose a new approach involving allosteric modulation to impose an activity-dependent constraint within the context of inflammation and tissue damage that would alter the responsiveness of the channel in a way that an orthosteric vanilloid antagonist cannot achieve. We believe that the allosteric modulator approach has not been explored for this target. The main goal of this proposal is to identify additional, new, potent allosteric modulators of TRPV1 that can be used to investigate TRPV1 function. Our recent report provides evidence of proof of concept, but the compounds are just at the edge of utility in terms of potency. […] The question of whether they can be used as analgesic agents is complex, but if suitable compounds are identified then testing for analgesic properties will be conducted. NIH Chemical Genomics Center [NCGC] NIH Molecular Libraries Probe Centers Network [MLPCN] MLPCN Grant: MH089480-1A1 Assay Submitter (PI): Michael Iadarola, National Institute of Dental and Cranofacial Research
Upon TRPV1 activation in TRPV1 cells, the channel opens and extracellular cations flow through the channel into the cytosol. A calcium binding dye (Fluo-8) becomes fluorescent when bound to calcium. This dye is pre-loaded into cells and is used as a marker for calcium influx. The amount of accumulated calcium is precisely quantified using the FDSS kinetic reader and the calcium dye. For the HTS assay, freshly prepared cells are plated at a density of 2000/well in 3 ul medium in 1536-well plates and cultured overnight at 35.5C. Cells will be loaded with 1 ul of the homogeneous calcium dye (ABD Bioquest) at room temperature for 40 to 90 minutes. Plates will be loaded into the FDSS kinetic reader and a 1 sec / cycle for 10 second baseline signal will be measured. Compound library will then be added with a pintool at 23 nl and measured kinetically for 3 minutes. This portion of the read is considered the agonist portion of the screen. Following the 3 minutes of incubation, an on board pipettor will deliver 1 ul of capsaicin for a final concentration equal to the EC20. Signal will be measured kinetically for an additional 2 minutes. This portion of the read is considered the allosteric enhancer portion of the screen. The FDSS reader has a standard filter set capable of measuring calcium bound Fluo-8 (ex=480 and em=520 nm).

Structure (SMILES) | potentiation
O=C(/C=C/c1ccccc1)OC1CN2CCC1CC2 (stereo not drawn) | inactive: -5.9%
CN(C)C1(CNC(=O)c2ccc(S(C)(=O)=O)cc2)CCCCC1 | inactive: -9.21%
CC1=C2N=C(C=C3N=C(C(C)=C4[N-][C@@](C)([C@@H]5N=C1[C@](C)(CCC(=O)NC[C@@H](C)OP(=O)([O-])O[C@H]1[C@@H](O)[C@@H](n6cnc7cc(C)c(C)cc76)O[C@@H]1CO)[C@H]5CC(N)=O)[C@@](C)(CC(N)=O)[C@@H]4CCC(N)=O)[C@@](C)(CC(N)=O)[C@@H]3CCC(N)=O)C(C)(C)[C@@H]2CCC(N)=O.[C-]#N.[Co+3] | inactive: -6.09%
O=[N+]([O-])c1cc([N+](=O)[O-])c(Nc2nnnn2CCO)c([N+](=O)[O-])c1 | inactive: 5.36%
COc1cc(C2NCCC3(OCCO3)C2(C)C)cc(OC)c1OC.O=[N+]([O-])c1cc([N+](=O)[O-])c(O)c([N+](=O)[O-])c1 (stereo not drawn) | inactive: -3.07%
CC1CCC(C(C)C)C(OP(=O)(Nc2ccccn2)c2ccccc2)C1 (stereo not drawn) | inactive: 7.12%
Cc1nn(-c2ccccc2)c2c1P(=O)(N1CCOCC1)N(C)C(c1ccccc1)=N2 (stereo not drawn) | inactive: -7.59%
Cc1ccc(OCC(=O)OC2CN3CCC2CC3)cc1 (stereo not drawn) | inactive: 11.5%
O=[As](O)(c1cccs1)c1cccs1 | inactive: 20.2%
O=P1(Nc2ccc(Br)cn2)COc2ccccc2OC1 | inactive: -14.4%
NS(=O)(=O)c1cccc(NC(=O)COC(=O)C(O)(c2ccccc2)c2ccccc2)c1 | inactive: 6.86%
CCCOc1ccc(NP(C)(=O)Oc2ccc(Cl)cc2)cc1 (stereo not drawn) | inactive: 5.39%
Nc1cccc([As](=O)(O)c2ccccc2)c1 | inactive: 5.45%
CP(=O)(Nc1ccc(SC(F)(F)F)cc1)Oc1ccccc1 (stereo not drawn) | inactive: -13.5%
COc1ccccc1OP(C)(=O)Nc1c(C)cccc1C (stereo not drawn) | inactive: 2.57%
CN1CCCCC1COC(=O)C1(O)c2ccccc2CCc2ccccc21 (stereo not drawn) | inactive: -0.057%
O=P1(Nc2ncccn2)COc2ccccc2OC1 | inactive: 0.0034%
CC(C)(C)C(=O)NC(Sc1ncccn1)C(Cl)(Cl)Cl (stereo not drawn) | inactive: -2.78%
Clc1n[nH]nc1-c1nn[nH][15n]1 | inactive: -10.8%
CCOP(=O)(Nc1ccc(C)cn1)OCC | inactive: -1.86%

Structure (SMILES) | potentiation
O=[N+]([O-])c1cc([N+](=O)[O-])c(-n2nnc3ccccc32)c([N+](=O)[O-])c1 | inactive: -5.45%
CCOP(=O)(NC(=NC(C)c1ccccc1)NC(C)c1ccccc1)OCC (stereo not drawn) | inactive: -28.5%
O=P1(Nc2ccccn2)COc2ccccc2OC1 | inactive: 2.73%
CCC1=CC2Cc3nc4ccc(Cl)cc4c(N)c3C(C1)C2 (stereo not drawn) | inactive: 6.89%
Cc1nc2ccc3ccccc3c2s1.O=[N+]([O-])c1cc([N+](=O)[O-])c(O)c([N+](=O)[O-])c1 | inactive: -18.2%
O=[As](O)(c1ccccc1Br)c1ccccc1Br | inactive: -7.15%
CC(C)/C=N\N=C(\N)N[N+](=O)[O-] | inactive: 12.7%
CN(C(=O)Cc1ccc(Cl)c(Cl)c1)[C@@H]1CCCC[C@H]1N1CCCC1 | inactive: -5.77%
COc1ccccc1CNC(=O)COC(=O)C(O)(c1ccccc1)c1ccccc1 | inactive: -5.33%
CCOC(=O)c1ccc(NP(C)(=O)Oc2cc(C)cc(C)c2)cc1 (stereo not drawn) | inactive: 2.1%
Cc1cc(C)cc(OP(C)(=O)Nc2ccc(C)cc2C)c1 (stereo not drawn) | inactive: 17.8%
Cc1cccc(OCC(=O)OC2CN3CCC2CC3)c1 (stereo not drawn) | inactive: 19.8%
COc1ccccc1OP(C)(=O)Nc1cccc(Br)c1 (stereo not drawn) | inactive: -9.49%
CS(=O)(=O)c1ccc(Cl)c(NC(=O)COC(=O)C(O)(c2ccccc2)c2ccccc2)c1 | inactive: 7.09%
O=[As](O)(O)c1cccnc1 | inactive: 3.69%
COc1cc(C(=O)NCC2(N3CCOCC3)CCCCC2)cc(Cl)c1OC(C)C | inactive: -33.4%
O=C(OC1CN2CCC1CC2)c1ccc(Cl)cc1 (stereo not drawn) | inactive: -5.94%
CCOP(=O)(Nc1cccc2ccccc12)OCC | inactive: 1.07%
Cc1ccc(C)c(NP(C)(=O)Oc2ccccc2)c1 (stereo not drawn) | inactive: 28.5%
CCCOP(=S)(Nc1nc(N)cc(=O)[nH]1)OCCC | inactive: 1.64%

Structure (SMILES) | potentiation
Cc1ccc(NCCc2c([N+](=O)[O-])cc([N+](=O)[O-])cc2[N+](=O)[O-])cc1 | inactive: 0.851%
Nc1cccc2c([As](=O)(O)O)cccc12 | inactive: -2.16%
Cc1cc(C)cc(OP(C)(=O)Nc2ccccn2)c1 (stereo not drawn) | inactive: 1.05%
CP(=O)(Nc1cccc(Br)c1)Oc1ccccc1 (stereo not drawn) | inactive: -9.97%
Nc1ccccc1[As](=O)(O)c1ccccc1 | inactive: 5.41%
O=C(O)COc1ccc([As](=O)(O)O)cc1[N+](=O)[O-] | inactive: 4.17%
O=P(Nc1nccs1)(Oc1ccccc1)Oc1ccccc1 | inactive: 24.9%
O=P(Nc1nccs1)(c1ccccc1)c1nc2ccccc2s1 (stereo not drawn) | inactive: 23.7%
CCOP1(=S)c2c(C)nn(CCC#N)c2N=C(c2ccccc2F)N1C (stereo not drawn) | inactive: -9.26%
CC1=NCCc2c1[nH]c1ccccc21.O=[N+]([O-])c1cc([N+](=O)[O-])c(O)c([N+](=O)[O-])c1 | inactive: 0.821%
O=[N+]([O-])c1ccc2c(c1)nnn2O | inactive: -5.24%
CCOP1(=S)c2c(C)nn(CCC#N)c2N=C(c2ccc(F)cc2)N1C (stereo not drawn) | inactive: -23.9%
CN(C(=O)Cc1ccccc1)[C@@H]1CC[C@]2(CCCO2)C[C@H]1N1CCCC1 | inactive: -2.5%
N#CCCN(C(=O)COC(=O)C(O)(c1ccccc1)c1ccccc1)c1ccc(F)cc1 | inactive: 4.05%
NC(=O)Nc1ccc([As](=O)(O)O)cc1 | inactive: -5.6%
O=[N+]([O-])c1ccc2c(c1)C=Nc1ccccc1O2 | inactive: 1.61%
Cc1ccc2nc3c(c(C)c2c1)CC(C(Cl)Cl)S3 (stereo not drawn) | inactive: -3.63%
Cc1cccc(C)c1OP(C)(N)=O (stereo not drawn) | inactive: -13%
